Values of other authors as cited in PubChem BioAssay AID977608.

Columns and labels:
Test in all cases: protein-ligand inhibition affinities from structures – PDB-derived complexes (AID 977608)
[1] = target: poly (adp-ribose) polymerase; details: literature IC50, protein: poly (adp-ribose) polymerase
[2] = target: cell division protein kinase 2
odorant-binding protein = details: literature IC50, protein: odorant-binding protein
[3] = target: tryptophan synthase (alpha chain); details: literature IC50, protein: tryptophan synthase (alpha chain)
L1 MBL = details: literature IC50, protein: L1 MBL
[4] = target: Pulmonary surfactant-associated protein D; details: literature IC50, protein: Pulmonary surfactant-associated protein D
[5] = target: Prototype Foamy Virus (PFV) intasome N224H mutant; details: literature IC50, protein: Prototype Foamy Virus (PFV) intasome N224H mutant, chain 3OYN_A, PDB entry 3OYN
[6] = target: Prototype Foamy Virus (PFV) intasome S217H mutant; details: literature IC50, protein: Prototype Foamy Virus (PFV) intasome S217H mutant, chain 3OYL_A, PDB entry 3OYL
[7] = target: Leukotriene A-4 hydrolase; details: literature IC50, protein: Leukotriene A-4 hydrolase
rhGCPII = details: literature IC50, protein: rhGCPII
[8] = target: glutamate receptor subunit 2
hiv-1 integrase = details: literature IC50, protein: hiv-1 integrase
bovine Cytochrome bc1 = details: literature IC50, protein: bovine Cytochrome bc1, chain 1SQB_C, PDB entry 1SQB
[9] = target: camp-dependent protein kinase, alpha-catalytic; details: literature IC50, protein: camp-dependent protein kinase, alpha-catalytic
[10] = target: 3-phosphoshikimate 1-carboxyvinyltransferase; details: literature IC50, protein: 3-phosphoshikimate 1-carboxyvinyltransferase
Beta-secretase 1 = target: Beta-secretase 1
[11] = target: heat shock protein 90 alpha; details: literature IC50, protein: heat shock protein 90 alpha
[12] = target: Hepatocyte growth factor receptor; details: literature IC50, protein: Hepatocyte growth factor receptor
[13] = target: Fatty-acid amide hydrolase 1
[14] = target: Serine/threonine-protein kinase PLK1
[15] = target: human phosphodiesterase 4d; details: literature IC50, protein: human phosphodiesterase 4d
glutamate receptor 2 = target: glutamate receptor 2
[16] = target: HYPOXIA-INDUCIBLE FACTOR 1-ALPHA INHIBITOR; details: literature IC50, protein: HYPOXIA-INDUCIBLE FACTOR 1-ALPHA INHIBITOR
[17] = target: LYSINE-SPECIFIC DEMETHYLASE 4A; details: literature IC50, protein: LYSINE-SPECIFIC DEMETHYLASE 4A
[18] = target: Mitogen-activated protein kinase 14
[19] = target: 2-C-METHYL-D-ERYTHRITOL 4-PHOSPHATE CYTIDYLYLTRANSFERASE, CHLOROPLASTIC; details: literature IC50, protein: 2-C-METHYL-D-ERYTHRITOL 4-PHOSPHATE CYTIDYLYLTRANSFERASE, CHLOROPLASTIC
OMPD = details: literature IC50, protein: OMPD, chain 2QCF_A, PDB entry 2QCF
porphobilinogen synthase = details: literature IC50, protein: porphobilinogen synthase

For `COc1cccc(C(N)=O)c1`, the IC50 ([1]; chain 3PAX_A, PDB entry 3PAX) is listed as 10 µM.

In the case of `Cc1nc(C)c(-c2ccnc(N)n2)s1`, the IC50 ([2]; literature IC50, protein: cell division protein kinase 2, chain 1PXJ_A, PDB entry 1PXJ) is given as 13 µM.

For `O=C(OCc1ccccc1)c1ccccc1`, the IC50 (odorant-binding protein; chain 1DZM_A, PDB entry 1DZM) is listed as 3.9 µM.

In the case of `Nc1ccccc1SCCCCP(=O)(O)O`, the IC50 ([3]; chain 1CX9_A, PDB entry 1CX9) is listed as 0.178 µM.

In the case of `CNS(=O)(=O)Cc1ccc(N=Nc2c(O)[nH]c3ccc4ncsc4c23)cc1`, the IC50 ([2]; literature IC50, protein: cell division protein kinase 2, chain 1KE6_A, PDB entry 1KE6) is given as 0.0057 µM.

In the case of `O=C(O)c1c(-c2ccccc2)oc(-c2ccccc2)c1C(=O)O`, the IC50 (L1 MBL; chain 2GFK_A, PDB entry 2GFK) is listed as 30 µM.

For `OC1C(O)C(O)C(O)C(O)C1O` (stereo unspecified), the IC50 ([4]; chain 2OS9_A, PDB entry 2OS9) is given as 5700 µM.

For `CCN1C[C@H](C)n2c(c(O)c3c(=O)n(Cc4ccc(F)c(Cl)c4)nc(C(=O)NC)c32)C1=O`, the IC50 [5] is listed as 0.025 µM and the IC50 [6] is listed as 0.2 µM.

In the case of `CN(CCCOc1ccc(Cc2ccccc2)cc1)CCC(=O)O`, the IC50 ([7]; chain 3FHE_A, PDB entry 3FHE) is given as 0.0025 µM.

In the case of `O=C(O)CC[C@H](NC(=O)N[C@@H](CSCc1ccc(F)cc1)C(=O)O)C(=O)O`, the IC50 (rhGCPII; chain 3D7D_A, PDB entry 3D7D) is given as 0.014 µM.

In the case of `O=c1[nH]c2cc([N+](=O)[O-])c([N+](=O)[O-])cc2[nH]c1=O`, the IC50 ([8]; literature IC50, protein: glutamate receptor subunit 2, chain 1FTL_B, PDB entry 1FTL) is listed as 0.998 µM.

For `Oc1ccc2[nH]ccc2c1`, the IC50 ([7]; chain 3FUH_A, PDB entry 3FUH) is given as 2000 µM.

In the case of `c1ccccc1`, the IC50 (hiv-1 integrase; chain 1HYZ_A, PDB entry 1HYZ) is listed as 380 µM.

In the case of `O=P(O)(O)OC1[C@H](O)[C@H](O)C(O)[C@H](O)[C@H]1O` (stereo partly specified), the IC50 ([4]; chain 2ORK_B, PDB entry 2ORK) is given as 1400 µM.

In the case of `CO/C=C(/C(=O)OC)c1ccccc1Oc1cc(Oc2ccccc2C#N)ncn1`, the IC50 (bovine Cytochrome bc1) is given as 0.0112 µM.

For `C[C@@H](N)C1CCC(C(=O)Nc2ccncc2)CC1` (stereo partly specified), the IC50 ([9]; chain 2GNF_A, PDB entry 2GNF) is listed as 6 µM and the IC50 ([9]; chain 2GNJ_A, PDB entry 2GNJ) is listed as 6 µM.

In the case of `O=C(O)C1=C[C@@H](O)[C@@H](O)[C@H](O)C1`, the IC50 ([10]; chain 2AA9_A, PDB entry 2AA9) is given as 1200 µM and the IC50 ([10]; chain 2AAY_A, PDB entry 2AAY) is given as 1200 µM.

In the case of `Cc1ccc(C(C)C)c(O)c1`, the IC50 (odorant-binding protein; chain 1E06_A, PDB entry 1E06) is given as 2.5 µM.

For `CC(=O)N[C@@H](Cc1cc(F)cc(F)c1)[C@H](O)CN[C@@]1(c2cccc(C(C)(C)C)c2)CCc2[nH]ncc2C1`, the IC50 (Beta-secretase 1; literature IC50, protein: Beta-secretase 1, chain 3IVI_A, PDB entry 3IVI) is given as 0.012 µM.

For `CC(C)NCCCn1c(Sc2cc3c(cc2I)OCO3)nc2c(N)ncnc21`, the IC50 ([11]; chain 2FWZ_A, PDB entry 2FWZ) is listed as 0.05 µM.

In the case of `O=C(Cc1ccc(F)cc1)NC(=O)Nc1ccc(Oc2ccnc3[nH]ccc23)c(F)c1`, the IC50 ([12]; chain 3CTJ_A, PDB entry 3CTJ) is given as 0.035 µM.

In the case of `CC(C)[C@H]1CN[C@H](C(=O)O)[C@H]1CC(=O)O`, the IC50 ([8]; literature IC50, protein: glutamate receptor subunit 2, chain 1FTK_A, PDB entry 1FTK) is given as 14.5 µM.

In the case of `OC[C@H](O)[C@H]1O[C@H](O)[C@@H](O)[C@@H](O)[C@@H]1O`, the IC50 ([4]; chain 2RIB_A, PDB entry 2RIB) is listed as 1500 µM.

For `CCn1c(=O)n([C@H]2CCCN(c3nccc(-c4cc5ccccc5o4)n3)C2)c2ccccc21`, the IC50 ([13]; literature IC50, protein: Fatty-acid amide hydrolase 1, chain 3QJ9_A, PDB entry 3QJ9) is listed as 0.1 µM.

In the case of `Cn1cc(-c2ccc3ncc(Cc4ccc5ncccc5c4)n3n2)cn1`, the IC50 ([12]; chain 3QTI_A, PDB entry 3QTI) is listed as 0.014 µM.

For `C[C@@H](NC(=O)c1cc(COC(=O)[C@](C)(N)Cc2ccccc2)cc(N(C)S(C)(=O)=O)c1)c1ccc(F)cc1`, the IC50 (Beta-secretase 1; literature IC50, protein: Beta-secretase 1, chain 2PH6_A, PDB entry 2PH6) is given as 0.027 µM.

For `CC(C)NCCCn1c(Sc2cc3c(cc2Br)OCO3)nc2c(N)ncnc21`, the IC50 ([11]; chain 2FWY_A, PDB entry 2FWY) is listed as 0.2 µM.

In the case of `O=P(O)(O)CCCCSc1ccccc1O`, the IC50 ([3]; chain 1C8V_A, PDB entry 1C8V) is listed as 0.472 µM.

For `Nc1ncnc2c1ncn2C1O[C@H](COP(=O)(O)OP(=O)(O)NP(=O)(O)O)[C@@H](O)[C@H]1O` (stereo partly specified), the IC50 ([14]; literature IC50, protein: Serine/threonine-protein kinase PLK1, chain 2OU7_A, PDB entry 2OU7) is given as 155 µM.

For `CN1CCN(c2ccc(C(=O)Nc3n[nH]c4c3CN(C(=O)Cc3cccs3)C4)cc2)CC1`, the IC50 ([14]; literature IC50, protein: Serine/threonine-protein kinase PLK1, chain 2OWB_A, PDB entry 2OWB) is listed as 0.44 µM.

In the case of `O=C(O)c1c(-c2ccccc2)nn(-c2ccccc2)c1C(=O)O`, the IC50 (L1 MBL; chain 2GFJ_A, PDB entry 2GFJ) is listed as 150 µM.

For `CNS(=O)(=O)c1ccc(N=Cc2c(O)[nH]c3ccccc23)cc1`, the IC50 ([2]; literature IC50, protein: cell division protein kinase 2, chain 1KE5_A, PDB entry 1KE5) is given as 0.56 µM.

In the case of `O=c1c2cccnc2n(-c2cccc([N+](=O)[O-])c2)c(=O)n1Cc1ccncc1`, the IC50 ([15]; chain 3G4G_A, PDB entry 3G4G) is given as 0.00091 µM and the IC50 ([15]; chain 3G4I_A, PDB entry 3G4I) is given as 0.00091 µM.

In the case of `CC(=O)Nc1cc(S(=O)(=O)O)cc2cc(S(=O)(=O)O)cc(O)c12`, the IC50 (hiv-1 integrase; chain 1A5V_A, PDB entry 1A5V) is given as 800 µM.

In the case of `COc1cc2c(Oc3ccc(-c4cnc(Cc5ccccc5)n(C)c4=O)cc3F)ccnc2cc1OCCCN1CCOCC1`, the IC50 ([12]; chain 2RFN_A, PDB entry 2RFN) is listed as 0.005 µM.

In the case of `Cn1nnc(-c2o[nH]c(=O)c2C[C@H](N)C(=O)O)n1`, the IC50 (glutamate receptor 2; literature IC50, protein: glutamate receptor 2, chain 1M5B_B, PDB entry 1M5B) is given as 0.0097 µM.

In the case of `CC(C)c1cccc(CNC[C@@H](O)[C@H](Cc2ccccc2)NC(=O)[C@@H]2CCC[C@H](C(C)(C)N3CCCCC3=O)C2)c1`, the IC50 (Beta-secretase 1; literature IC50, protein: Beta-secretase 1, chain 3K5G_A, PDB entry 3K5G) is listed as 0.0025 µM.

In the case of `O=C(O)CC[C@H](O)C(=O)O`, the IC50 ([16]; chain 2YDE_A, PDB entry 2YDE) is listed as 189 µM and the IC50 ([17]; chain 2YBS_A, PDB entry 2YBS) is listed as 26 µM.

In the case of `OC[C@@H](O)[C@H]1O[C@H](O)[C@@H](O)[C@@H](O)[C@@H]1O`, the IC50 ([4]; chain 2RIA_A, PDB entry 2RIA) is listed as 2700 µM.

In the case of `O=C1C[C@@H](c2ccc(O)cc2)Oc2cc(O)cc(O)c21`, the IC50 ([18]; literature IC50, protein: Mitogen-activated protein kinase 14, chain 4EH3_A, PDB entry 4EH3) is listed as 292 µM.

In the case of `Nc1ccc2c3c(cccc13)C(=O)NC2=O`, the IC50 ([1]; chain 2PAX_A, PDB entry 2PAX) is given as 0.18 µM.

In the case of `O=C(OCc1ccccc1)c1cccnc1`, the IC50 ([18]; literature IC50, protein: Mitogen-activated protein kinase 14, chain 4EH5_A, PDB entry 4EH5) is given as 818 µM.

In the case of `O=[S@](CCCCP(=O)(O)O)c1ccccc1O`, the IC50 ([3]; chain 1CW2_A, PDB entry 1CW2) is given as 0.715 µM.

For `O=C(O)CC[C@H](NC(=O)N[C@@H](Cc1ccc(O)c(I)c1)C(=O)O)C(=O)O`, the IC50 (rhGCPII; chain 3D7F_A, PDB entry 3D7F) is listed as 0.0005 µM.

In the case of `N#Cc1cnn2c1N=C(Cl)C(Cc1ccccc1)C2=O` (stereo unspecified), the IC50 ([19]; chain 2YC5_A, PDB entry 2YC5) is listed as 0.035 µM.

For `OCN1CCC2(CC1)OCc1cc(Br)ccc1O2`, the IC50 ([13]; literature IC50, protein: Fatty-acid amide hydrolase 1, chain 3QKV_B, PDB entry 3QKV) is listed as 0.036 µM.

In the case of `CC(C)(C)c1o[nH]c(=O)c1C[C@H](N)C(=O)O`, the IC50 (glutamate receptor 2; literature IC50, protein: glutamate receptor 2, chain 1NNK_A, PDB entry 1NNK) is listed as 3.5 µM.

In the case of `O=C(O)CC[C@@H](O)C(=O)O`, the IC50 ([16]; chain 2YC0_A, PDB entry 2YC0) is given as 1500 µM, the IC50 ([17]; chain 2YBK_A, PDB entry 2YBK) is given as 24 µM and the IC50 ([17]; chain 2YBP_A, PDB entry 2YBP) is given as 24 µM.

For `O=c1c(Cc2ccccc2)c(Cl)nc2nc[nH]n12`, the IC50 ([19]; chain 2YC3_A, PDB entry 2YC3) is listed as 0.14 µM.

In the case of `O=c1[nH]c(=O)n([C@@H]2O[C@H](COP(=O)(O)O)[C@@H](O)[C@H]2O)cc1F`, the IC50 (OMPD) is listed as 320 µM.

In the case of `O=C(O)CCCCCCCCC(=O)O`, the IC50 (porphobilinogen synthase; chain 1I8J_A, PDB entry 1I8J) is given as 39 µM, the IC50 (porphobilinogen synthase; chain 1L6S_A, PDB entry 1L6S) is given as 39 µM and the IC50 (porphobilinogen synthase; chain 1L6Y_A, PDB entry 1L6Y) is given as 220 µM.

In the case of `O=C(c1ccccc1)c1ccccc1`, the IC50 (odorant-binding protein; chain 1DZP_B, PDB entry 1DZP) is given as 3.6 µM.
